Target: T1, murine LFL2-Fc fusion (mouse; human, UniProt Q80X72 22-536; P01857 99-330 = IgG part, limits assumed)
T1 construct: extracellular domain;domain: constant region of the human gamma 1 immunoglobulin heavy chain; 'Generated as described above for human LFL2'; also called Mouse LFL2-Fc
Assay: SPR (BIAcore 3000), mAb immobilised on CM5, LFL2-Fc analyte, bivalent analyte model
Description: Kinetics measurements between human LFL2-Fc fusion protein and anti-LFL2 mAbs were performed using BIAcore 3000™ (BIAcore™, Sweden). Anti-LFL2 mAbs were immobilized with 100 RUs on Research-grade CM5 sensor chip by the BIAcore amine coupling reagents (N-ethyl-N′-dimethylaminopropylcarbodiimide, EDC; N-hydroxysuccinimide, NHS; and ethanolamine HCl, pH8.5). Assays were run at a flow rate of 30 ul/min at room temperature. Three-minute association phase of each LFL2-Fc was followed by ten-minute injection of running buffer (10 mM Hepes, 300 mM sodium chloride, 3 mM EDTA, 0.05% P-20, pH7.4) to monitor dissociation. The mAb surface was regenerated with 25 mM NaOH. The binding kinetics of each LFL2-mAb pair was calculated from the data at six different concentrations (2048 nM, 512 nM, 128 nM, 32 nM, 8 nM, 2 nM) of LFL2-Fc analyte, using the BIAevaluate program. Double referencing was applied in each analysis to eliminate background responses from reference surface and buffer only control. The affinity (KD) of binding was obtained by simultaneously fitting the association and dissociation phases of the sensorgram from the analyte concentration series using the bivalent analyte model from BIAevaluate software.

Kd: 0.87 nM
B1: anti-LFL2 mAb M25 (antibody, V domains shown)
VH: QVQLQQSGAELMKPGASVKISCKATGYKFSSYWIEWVKQRPGHGLEWIGEILPGSDTTNYNEKFKDKATFTSDTSSNTAYMQLSSLTSEDSAVYYCARDRGNYRAWFGYWGQGTLVTVS
VL: DIQMTQTSSLSASLGDRVTISCRASQDISNYLNWYQQKPDGTVKFLIYYTSRLHSGVPSRFSGSGSGTDYSLTISYLEPEDIATYFCQQGEALPWTFGGGTKLEIKR
